Details: remifentanil injection formulations containing these colorants

Row | Substance | Effect of colorant on survival rate of the remifentanil in stability test
1 | riboflavin phosphate ester sodium | greatly lowered the survival rate of the remifentanil
2 | uranine | greatly lowered the survival rate of the remifentanil
